The text below walks through data of patent US20210154272A1, “NEUROMODULATING COMPOSITIONS AND RELATED THERAPEUTIC METHODS FOR THE TREATMENT OF CANCER BY MODULATING AN ANTI-CANCER IMMUNE RESPONSE” (Flagship Pioneering Innovations V, Inc., priority 2016, published 2021).

The assay relates to macrophages differentiated from CD14+ monocytes. Nature of the assay: Macrophage activation and cytokine secretion assay. It is filed as cell-based, human. The following applies: dilutions from 10 μM to 1 nM. The protocol: Peripheral blood mononuclear cells (PBMCs) were isolated from whole blood by ficoll density separation. Briefly, blood was diluted 1:2 with 0.5 mM EDTA solution in PBS, loaded onto a Ficoll-filled Leucosep tube (Greiner Bio-One), and centrifuged for 20 minutes at 1000×g. After centrifugation, the leukocyte/PBMC layer was collected and sequentially washed three times with 0.5 mM EDTA solution in PBS.
Monocytes (CD14+) were isolated from PBMCs using magnetic bead-based separation following vendor specifications, e.g., Biolegend MojoSort Human CD14 Selection Kit protocol. In brief, PBMCs were labeled with biotinylated antibodies against cell surface receptors for cells not in the population of interest. The labeled cells are then captured by streptavidin-coated magnetic beads and removed by magnetic incubation. […]
Supernatants were collected at 24, 48, and 72 hrs and cytokine secretion was analyzed by flow cytometry using a LEGENDplex assay (BioLegend). […] The beads were then stained and the captured cytokine composition assessed by flow cytometry.
M1 macrophage polarization is defined as increase in production of IL-12, TNF, IL-6, IL-8, IL-1B, MCP-1 and CCL2. Additionally, markers of M1 polarization that can be detected by RNA include Nos2. […] Additionally, markers of M2 polarization that can be detected by RNA include Arg1, IDO, PF4, CCL24, IL10, and IL4Ralpha.

For “CGRP (ACDTATCVTHRLAGLLSRSGGVVKNNFVPTNVGSKAF; Calcitonin gene-related peptide 1; UniProt P06881 83-119, looked up) [neuropeptide CGRP]”, the “macrophage polarization (M1 or M2 phenotype)” value is reported as “polarized toward an M1 phenotype”. Further, the “secretion of TNFα” value (M1 marker) was “increased”.
